Columns and labels:
[1] = Drug release upon X-ray irradiation, quantified by LC-MS; type: physicochemical; details: for drug release at low radiation dose: X-ray doses of 1-2 Gy; for drug payload released from albumin-conjugate: X-ray doses of 8-16 Gy, conjugate solutions 100 μM
Procedure: The sensitivity of linker cleavage to varying doses of radiation were examined; Solutions of both conjugates at a concentration of 100 μM were irradiated at an exposure of 1-16 Gy, and LC-MS analysis was performed to determine the released drug concentrations (FIG. 7). […] With a standard protocol used in clinical treatments, patients typically receive ˜2 Gy radiation per day, 5 days a week, for ≥5 weeks, therefore yielding cumulative radiation doses of ≥50 Gy.
Determination of drug release efficiency was performed by preparing solutions of each prodrug in deionized water (0.1% DMF) to a final concentration of 10 μM. Vacuum degassing was performed by gently stirring the samples at ˜200 mbar for thirty minutes at room temperature, while degassing by argon was performed by bubbling ultra-high purity grade gas (Airgas, Lynn, MA, 01902, USA) into the solution at a rate of approximately 5 mL s-1. After these preparations, X-ray irradiation was performed using a Precision (Madison, CT, USA) X-Rad320 at a rate of 385±10 cGy/min until the desired dosage was achieved. Gamma irradiation was similarly performed on a dual source 137Cs Gammacell 40 Exactor (Best Theratronics) with a dose rate of roughly 50 cGy/min. After irradiation or other treatment, the concentration of the released drug and the intact prodrug were determined by LC-MS on a Waters instrument equipped with a Waters 2424 ELS Detector, Waters 2998 UV-Vis Diode array Detector, and a Waters 3100 Mass Detector. Drug concentrations were determined by comparing the AUC from the ELSD or isolated mass chromatographs (+ESI, 718.8 Da for MMAE, 544.4 Da for DOX) of the analyzed sample to a standard calibration curve.
For the measurement of released products relative to the X-ray dosage, DMBA-SIL-MMAE protein conjugate was prepared to a concentration of 50 μM in PBS (0.1% DMF, 5 mL), then purged with ultra-pure grade argon (5 mL s-1) for 15 minutes. The solution was then X-ray irradiated using the X-Rad320 to deliver 8 Gy irradiation and analyzed by LC-MS as described above.
For radiation release experiments, 10 μM solutions of the albumin-gardiquimod conjugate were prepared in PBS (pH 7.4). X-ray irradiation was performed using a Precision (Madison, CT, USA) X-Rad320 at a rate of 330±10 cGy/min until the desired dosage was achieved. Irradiated samples were incubated at room temperature for 1 hour following irradiation to allow for the drug to fully release. All samples were then analyzed via LC-MS and compared to a previously prepared calibration curve (5 point curve utilizing the M+H+ ESI signal) to determine the amount of free drug generated (results shown in FIG. 19)

8505c cell line = test: Subcellular localization of DOX by intrinsic fluorescence imaging; type: cell-based, human; details: ATC cells (8505c)
Procedure: Doxorubicin is an anthracycline that intercalates DNA, inhibits topoisomerase II, and therefore generates DNA damage leading to cell death. The 3′ amino of the daunosamine moiety on doxorubicin forms a covalent bond with the exocyclic amino of guanine, and this site is frequently modified to cage drug activity (Miller, M. A. et al. ACS nano 2018, 12, 12814-12826), as done here as well.
Subcellular localization of DOX in the 8505c cell line was measured using a modified BX63 (Olympus) inverted microscopy system equipped with an environmental chamber and robotic stage. DOX images were collected using a 40× air objective (PLAPO 40×/0.95 numerical aperture), with excitation and emission wavelengths of 489 nm and 508 nm, respectively. All images were processed using cellSens Dimension 3.1.1 (Olympus, USA) and ImageJ 1.53k (NIH, USA) software. Nuclear to cytoplasm fluorescence ratios were calculated and plotted using Excel (Microsoft) and Prism (GraphPad). 20 μM concentration of free (or released) DOX was used, and unirradiated prodrug used the same total (caged and uncaged) DOX concentration as used in the irradiated sample. Following treatment for 72 hours, live cells were immediately imaged by confocal microscopy.

[2] = tested on: 8505c (human anaplastic thyroid cancer); test: Cytotoxicity assay, 72 hour incubation, PrestoBlue (resazurin-based); type: cell-based
Procedure: Experiments with cancer cells were performed to assess the degree to which the disclosed linker strategy shields biological activity of the drug payload under un-irradiated conditions, and restore drug activity once irradiated. Cancer cell lines were selected with constitutively active oncogenic signaling in the mitogen activated protein kinase (MAPK) RAS/RAF/MEK/ERK pathway, which has been previously shown as important for oncogene-driven uptake of serum albumin (Li, R. et al. Nat. Nanotechnol. 2021, 16, 830-839); cancer-types that are treated with cytotoxic agents and radiation therapy, including anaplastic thyroid cancer (ATC), a rare but aggressive malignancy that is associated with high degrees of resistance to traditional chemotherapy and radiation therapy were of particular focus. Drugs were irradiated prior to cancer cell treatment to allow assessment of drug action (caging and uncaging) independent of the biological effects of radiation to the cancer cells, which even at <10 Gy doses in cells considered radioresistant, such as human 8505c ATC cells, can substantially impact proliferation in vitro (Oweida, A. et al. Cancer Thyroid 2018, 28, 739-747). […] Similar observations were found in cells derived from a genetically engineered mouse model of ATC (the TBP-3743 cell line) and other cancer cell lines (FIG. 8c and FIG. 20).
TBP-3743 (derived from a genetically engineered mouse model of anaplastic thyroid cancer) and 8505c (human anaplastic thyroid cancer) are described previously 59, as are HT1080-EB3-mApple cells 52. Raw264.7 (mouse macrophage model, Raw-MΦ) were from ATCC. […] All cells were routinely evaluated for mycoplasma contamination and cultured following provider guidelines using 10% FBS (Bio-Techne Sales), 100 IU mL-1 penicillin, 100 μg mL-1 streptomycin (Invitrogen), with incubation at 37° C. and 5% CO2. […] After addition of the corresponding drugs and a 72 hour incubation, the number of live cells was determined by PrestoBlue (ThermoFisher, USA) staining according to the provider's protocols.

[3] = tested on: HT1080 EB3-mApple cell line; test: EB3 imaging of microtubule dynamics by confocal microscopy; type: cell-based; details: 1 μM
Excerpt: MMAE blocks the polymerization of tubulin into microtubules, which are critical cytoskeletal components that mediate mitotic cell division and metastatic invasion of cancer cells (Luthria, G. et al. Nat. Commun. 2020, 11, 3521; Dumontet, C. et al. Nat. Rev. Drug Discovery 2010, 9, 790-803). To directly visualize microtubule dynamics in live cancer cells, HT1080 EB3-mApple cell line was used, which transgenically expresses the fluorescent protein mApple fused to the protein EB3 (microtubule-associated protein RP/EB family member 3, MAPRE3). EB3 binds plus-end tips of growing microtubules, and time-lapse microscopy allows growing microtubules to be quantified for their abundance, growth velocities, and other features (Miller, M. A. et al. ACS nano 2018, 12, 12814-12826).
EB3 imaging was performed on an FV1000 confocal laser scanning microscope equipped with a 37° C. heated stage, XLUMPLFLN 20× (NA 1.0) water-immersion objective, 559 nm diode laser, and BA575-620 emission filter (all Olympus America). […] For MT tracks to be included in the downstream analyses, they must pass a strict set of filters: (1) located within a cell boundary, (2) be present in a minimum of 3 consecutive frames, (3) must have a path length less than 10 μm, (4) track persistence must be greater than 0.5 (measured on a scale of 0 to 1, with 1 indicating a line). […]

subcutaneous MC38 tumors = test: MMAE release in irradiated versus non-irradiated contralateral tumors, LC/MS; type: in vivo, C57BL/6 mice; details: prodrug intravenously 24 hours prior to 10 Gy local irradiation; bilateral tumors excised after 10 minutes
Procedure: pATFB-caged compounds are chemically activatable in live cell cultures. Cancer cells treated with Alb-pATFB-SIL-MMAE accumulate the albumin vehicle, and subsequent 10 Gy irradiation activates roughly 50% of the drug (FIG. 18A). […] Alb-pATFB-SIL-MMAE prodrug was given intravenously 24 hours prior to 10 Gy irradiation locally at the tumor site. Irradiated and non-irradiated bilateral tumors were then excised after 10 minutes and examined by LC/MS for accumulation of activated uncaged MMAE (FIG. 18B).
All animal research was performed in accordance with guidelines from the Institutional Subcommittee on Research Animal Care. MC38 tumors were generated by injecting 106 cells into C57BL/6 mice on either flank. These mice were then treated with MSA-pATFB-SIL-MMAE conjugate via tail vein injection (0.2 mg prodrug per mouse). After 24 hours, these mice were X-ray irradiated (10 Gy) on one of their tumors, leaving the contralateral tumor as a negative control. The tumors were then harvested and minced in 100 μL lysis buffer (Invitrogen). The lysate was stored on ice for 1 hour before it was diluted 5-fold with 10% silver nitrate in acetonitrile. This suspension was incubated on ice for 10 minutes, then centrifuged (10,000 g for 5 min) and the supernatant was analyzed by LC-MS to determine the total drug in solution. […]

HT1080 cancer cells = test: Intracellular release of MMAE from albumin conjugate in live cells after X-ray irradiation, LC-MS; type: cell-based; details: 24 hour incubation, then 10 Gy irradiation
Procedure: HT1080 cells stably expressing H2B-mApple were prepared as previously described (HT1080 H2B-mApple [Dubach et al., 2017, Nature Chemical Biology, 13, 168-173]). Intracellular release of MMAE from the MSA conjugate was measured by preparing confluent 15 cm culture plates of HT1080-mApple cells and adding the conjugate to a final concentration of 10 μM. These plates were incubated for 24 hours, then X-ray irradiated (10 Gy) and the cells were washed 3 times with PBS. Cell lysis buffer (Invitrogen, 100 μL) was then added to each plate and a cell scraper was used to dislodge the cells. The resulting cell suspension was kept on ice for 30 minutes before a solution of 10% silver nitrate in acetonitrile was added (5 fold dilution). After incubating for a further 10 minutes on ice, the suspensions were centrifuged (10,000 g for 5 min) and the supernatant was analyzed via LC-MS to determine the percentage of MMAE released. A comparison of the various prodrug conjugates was performed by preparing confluent HT1080-mApple cells in a 6-well plate. The cells were then treated with either free drug or the corresponding MSA conjugate, lysed and analyzed as described above (results shown in FIG. 18).

Alb-DMBA-SIL-DOX
drug release at low radiation dose [1]: detectable drug release
drug payload released from albumin-conjugate [1]: 69±8%
subcellular distribution of DOX fluorescence, irradiated conjugate (8505c cell line; conjugate X-ray irradiated (8 Gy)): nuclear accumulation
subcellular distribution of DOX fluorescence, unirradiated conjugate (8505c cell line; unirradiated): confined to the cytoplasm
fold higher IC50 than that observed for the parent drug ([2]; un-irradiated, 8505c ATC cells): roughly 100 fold

Alb-DMBA-SIL-MMAE
drug release at low radiation dose [1]: detectable drug release
drug payload released from albumin-conjugate [1]: 66±6%
impact on cancer cell microtubule dynamics, irradiated ([3]; after argon purging and X-ray irradiation (8 Gy)): totally eliminated
impact on cancer cell microtubule dynamics, un-irradiated ([3]; un-irradiated): no significant impacts
fold lower cytotoxicity compared to the parent MMAE drug ([2]; un-irradiated conjugate, 8505c cells): 5,700 fold
fold lower cytotoxicity than the un-anchored compounds DMBA-SIL-MMAE and MMAE-DMBA ([2]; un-irradiated, 8505c cells): ~40 fold

Alb-pATFB-SIL-MMAE
accumulation of activated uncaged MMAE in tumors (subcutaneous MC38 tumors): accumulation of chemically activated MMAE payload in irradiated but not non-irradiated tumors
fraction of drug activated in live cancer cells (HT1080 cancer cells): roughly 50%

Source: patent US20250302968A1, “RADIATION CLEAVED DRUG-CONJUGATE LINKERS ENABLE LOCAL PAYLOAD RELEASE SCLEROSIS” (The General Hospital Corporation, priority 2022, published 2025)
